Active and inactive are the calls of the source. The calls are words filed in the database; no cut-off is given here.
Legend:
[1] = Cytotoxicity against non-cycling human PBMC cells at 0.2 to 100 nM measured after 72 hrs by CellTiter-Blue assay; format: toxicity, cell-based; conditions: 0.1 µM, dose 0.2-100 nM
[2] = test system: Jurkat; test: Antitumor activity against human Jurkat cells xenografted in female NSG mouse assessed as reduction in tumor growth at 20 mg/kg, po administered daily for 26 days; format: functional, organism-based; conditions: time 26.0 day
[3] = test system: HepG2; test: Cytotoxicity in human HepG2 cells assessed as effect on cell growth upto 40 uM incubated for 72 hrs by high content toxicological analysis; format: toxicity, cell-based; conditions: hepg2, 72 h
[4] = test system: HepG2; test: Cytotoxicity in human HepG2 cells assessed as effect on nuclear size upto 40 uM incubated for 72 hrs by high content toxicological analysis; format: toxicity, cell-based; conditions: hepg2, 72 h
[5] = test system: HepG2; test: Cytotoxicity in human HepG2 cells assessed as effect on DNA structure upto 40 uM incubated for 72 hrs by high content toxicological analysis; format: toxicity, cell-based; conditions: hepg2, 72 h
[6] = test system: HepG2; test: Cytotoxicity in human HepG2 cells assessed as effect on cell membrane permeability upto 40 uM incubated for 72 hrs by high content toxicological analysis; format: toxicity, cell-based; conditions: hepg2, 72 h
[7] = test system: HepG2; test: Cytotoxicity in human HepG2 cells assessed as effect on mitochondrial mass upto 40 uM incubated for 72 hrs by high content toxicological analysis; format: toxicity, cell-based; conditions: hepg2, 72 h
[8] = test system: HepG2; test: Cytotoxicity in human HepG2 cells assessed as effect on mitochondrial membrane potential upto 40 uM incubated for 72 hrs by high content toxicological analysis; format: toxicity, cell-based; conditions: hepg2, 72 h
[9] = test system: HepG2; test: Cytotoxicity in human HepG2 cells assessed as effect on cytochrome C release upto 40 uM incubated for 72 hrs by high content toxicological analysis; format: toxicity, cell-based; conditions: hepg2, 72 h
[10] = Toxicity in female NSG mouse assessed as body weight loss at 50 to 150 mg/kg, po administered once a day for 7 days and measured after 7 days; format: organism-based; conditions: in vivo, 336 h, dose 50-150 mg/kg, time 14 day
[11] = Toxicity in female NSG mouse assessed as adverse events at 50 to 150 mg/kg, po administered once a day for 7 days and measured after 7 days; format: organism-based; conditions: in vivo, 336 h, dose 50-150 mg/kg, time 14 day
[12] = test system: Jurkat; test: Antitumor activity against human Jurkat cells xenografted in female NSG mouse assessed as reduction in tumor growth at 100 to 150 mg/kg, po administered daily for 26 days; format: functional, organism-based; conditions: dose 100-150 mg/kg, time 26.0 day
[13] = Toxicity in female NSG mouse xenografted with human Jurkat cells assessed as body weight loss at 100 to 150 mg/kg, po administered daily for 26 days; format: organism-based; conditions: in vivo, 624 h, dose 100-150 mg/kg, time 26 day
[14] = Toxicity in female NSG mouse xenografted with human Jurkat cells assessed as effect on reticulocyte count at 100 to 150 mg/kg, po administered daily for 26 days; format: organism-based; conditions: in vivo, 624 h, dose 100-150 mg/kg, time 26 day
[15] = test system: PANC-1; test: Synergistic antitumor activity against human PANC-1 cells incubated for 72 hrs in presence of paclitaxel; format: functional, cell-based

COc1cc(Nc2ncc3c(n2)-c2ccc(Cl)cc2C(c2c(F)cccc2OC)=NC3)ccc1C(=O)O [ALISERTIB]
Activity [1]: Non-Toxic
Activity [2]: Active

Cc1c(C(=O)NS(=O)(=O)C2CC2)cc(-c2ccc(Cl)cc2)c2cc[nH]c12
Activity [3]: Non-Toxic
Activity [4]: Non-Toxic
Activity [5]: Non-Toxic
Activity [6]: Non-Toxic
Activity [7]: Non-Toxic
Activity [8]: Non-Toxic
Activity [9]: Non-Toxic

Cc1c(C(=O)NS(=O)(=O)N(C)C)cc(-c2ccc(Cl)c(Oc3ccccn3)c2)c2cc[nH]c12
Activity [10]: Non-Toxic
Activity [11]: Non-Toxic
Activity [12]: Active
Activity [13]: Non-Toxic
Activity [14]: Toxic

Cc1c(C(=O)O)cc(-c2ccc(Cl)c(C#N)c2)c2cc[nH]c12
Activity [15]: Active

Reference: ChEMBL document CHEMBL5584349
